Laboratory results as given in BindingDB's records for US8969358.

By UniProt entry, the sequences of proteins in these tests, tags left out.
UniProt P41143, whole entry: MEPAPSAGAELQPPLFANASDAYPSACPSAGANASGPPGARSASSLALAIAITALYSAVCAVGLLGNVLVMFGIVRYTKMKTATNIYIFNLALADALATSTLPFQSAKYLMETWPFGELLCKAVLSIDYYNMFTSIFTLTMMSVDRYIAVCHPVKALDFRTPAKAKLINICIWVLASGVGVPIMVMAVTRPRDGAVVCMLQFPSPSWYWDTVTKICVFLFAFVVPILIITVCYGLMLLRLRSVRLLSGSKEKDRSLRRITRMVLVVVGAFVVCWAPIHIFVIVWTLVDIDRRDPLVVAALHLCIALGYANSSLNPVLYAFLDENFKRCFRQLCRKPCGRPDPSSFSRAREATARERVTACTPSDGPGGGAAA
UniProt P41145, whole entry: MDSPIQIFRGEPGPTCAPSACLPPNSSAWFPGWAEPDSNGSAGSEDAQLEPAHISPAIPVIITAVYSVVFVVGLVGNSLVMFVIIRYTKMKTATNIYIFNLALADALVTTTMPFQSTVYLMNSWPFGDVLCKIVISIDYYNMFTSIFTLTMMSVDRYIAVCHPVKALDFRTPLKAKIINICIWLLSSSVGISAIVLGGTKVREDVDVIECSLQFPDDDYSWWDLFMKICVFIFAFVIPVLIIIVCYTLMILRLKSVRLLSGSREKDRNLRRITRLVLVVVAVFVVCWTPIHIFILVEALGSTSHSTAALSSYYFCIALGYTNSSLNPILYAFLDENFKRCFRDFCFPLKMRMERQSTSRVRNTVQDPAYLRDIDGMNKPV
UniProt P35372, whole entry: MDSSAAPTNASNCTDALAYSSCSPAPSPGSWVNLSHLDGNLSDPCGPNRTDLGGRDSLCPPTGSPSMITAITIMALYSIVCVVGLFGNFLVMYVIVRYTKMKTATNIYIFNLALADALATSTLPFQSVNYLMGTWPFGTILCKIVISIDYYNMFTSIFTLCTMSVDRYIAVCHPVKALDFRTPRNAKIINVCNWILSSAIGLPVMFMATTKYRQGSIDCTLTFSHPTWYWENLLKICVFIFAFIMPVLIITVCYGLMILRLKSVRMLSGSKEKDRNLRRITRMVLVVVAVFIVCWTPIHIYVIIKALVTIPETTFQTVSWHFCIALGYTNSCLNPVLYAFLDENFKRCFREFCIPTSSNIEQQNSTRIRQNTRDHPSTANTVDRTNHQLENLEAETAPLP

What was measured:
Assay in all cases: Binding Assay
Settings in all cases: pH 7.4
[1] = target: Delta-type opioid receptor (Homo sapiens, UniProt P41143)
[2] = target: Kappa-type opioid receptor (Homo sapiens, UniProt P41145)
Mu-type opioid receptor = Mu-type opioid receptor (Homo sapiens, UniProt P35372)

Structure (SMILES)	Ki [1] [nM]	Ki [2] [nM]	Ki (Mu-type opioid receptor) [nM]
CO[C@]12CC[C@@]3(C[C@@H]1CNC(=O)[C@@H](N)Cc1ccccc1)[C@H]1Cc4ccc(O)c5c4[C@@]3(CCN1CC1CC1)[C@H]2O5	2.01	0.06	3.66
CO[C@]12CC[C@@]3(C[C@@H]1CNC(=O)[C@H](Cc1ccccc1)NC(C)=O)[C@H]1Cc4ccc(O)c5c4[C@@]3(CCN1CC1CC1)[C@H]2O5		0.16	0.36
CO[C@]12CC[C@@]3(C[C@@H]1CNC(=O)[C@@H](N)Cc1c[nH]cn1)[C@H]1Cc4ccc(O)c5c4[C@@]3(CCN1CC1CC1)[C@H]2O5		0.25	3.18
CO[C@]12CC[C@@]3(C[C@@H]1CNC(=O)[C@H](CO)NC(C)=O)[C@H]1Cc4ccc(O)c5c4[C@@]3(CCN1CC1CC1)[C@H]2O5		0.61	5.83
CO[C@]12CC[C@@]3(C[C@@H]1CNC(=O)CN)[C@H]1Cc4ccc(O)c5c4[C@@]3(CCN1CC1CC1)[C@H]2O5			0.53
CO[C@]12CC[C@@]3(C[C@@H]1CNS(C)(=O)=O)[C@H]1Cc4ccc(O)c5c4[C@@]3(CCN1CC1CC1)[C@H]2O5		0.74	
CO[C@]12CC[C@@]3(C[C@@H]1CNS(=O)(=O)C(F)(F)F)[C@H]1Cc4ccc(O)c5c4[C@@]3(CCN1CC1CC1)[C@H]2O5		0.37	
COC12CC[C@@]3(C[C@@H]1CNC(=O)c1ccccc1C(=O)O)[C@H]1Cc4ccc(O)c5c4[C@@]3(CCN1CC1CC1)[C@H]2O5	6.46	0.32	1.51
COC12CC[C@@]3(C[C@@H]1CNC(=O)Nc1cccc(C)c1)[C@H]1Cc4ccc(O)c5c4[C@@]3(CCN1CC1CC1)[C@H]2O5		0.1	
CO[C@]12CC[C@@]3(C[C@@H]1CNC(=O)[C@@H](N)Cc1ccc(O)cc1)[C@H]1Cc4ccc(O)c5c4[C@@]3(CCN1CC1CC1)[C@H]2O5			0.77
